Values quoted from earlier work in patent publication US5648396A, “Methods for treating depression and other disorders using optically pure R (-) fluoxetine and monoamine oxidase inhibitor” (Sepracor Inc., priority 1995, dated 1997).

What was measured:
[1] = molecular target: 5HT uptake cortical synaptasomes; conditions: cited from earlier work; for Ki: Wong et al 1985; for IC50: Wong et al 1988
H1 receptor = conditions: relative to effect on 5HT uptake; cited from earlier work
M1 receptor = conditions: relative to effect on 5HT uptake; cited from earlier work
muscarinic receptors = conditions: than tricyclic antidepressants; brain tissue; cited from earlier work

SMILES	Ki [1] [nM]	IC50 [1] [nM]	affinity for H1 receptor (H1 receptor)	affinity for M1 receptor (M1 receptor)	binding to muscarinic receptors (muscarinic receptors)
CNCC[C@@H](Oc1ccc(C(F)(F)F)cc1)c1ccccc1 [R-Fluoxetine, (-)N-methyl-3-phenyl-3-[(α,α,α-trifluoro-p-tolyl)-oxy]-propylamine]	33	99.5	relatively little affinity	relatively little affinity	
CNCC[C@H](Oc1ccc(C(F)(F)F)cc1)c1ccccc1 [S-Fluoxetine]	21	61.5	relatively little affinity	relatively little affinity	
CNCCC(Oc1ccc(C(F)(F)F)cc1)c1ccccc1 (racemic) [R,S-Fluoxetine]	30				much less potently
